Measured affinities in a library of Ab-14 heavy chain variants

Target: peptide PDVDLGDISGINAS, taken from heptad repeat 2 (HR2) of SARS-CoV-2 spike.

The variants keep the light chain, the linker and the frameworks of Ab-14 (scFv order VH, a (GGGGS)3 linker, VL).
VH: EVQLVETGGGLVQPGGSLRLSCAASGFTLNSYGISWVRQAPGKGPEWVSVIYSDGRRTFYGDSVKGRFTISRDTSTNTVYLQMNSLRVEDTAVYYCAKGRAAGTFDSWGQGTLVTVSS
VL: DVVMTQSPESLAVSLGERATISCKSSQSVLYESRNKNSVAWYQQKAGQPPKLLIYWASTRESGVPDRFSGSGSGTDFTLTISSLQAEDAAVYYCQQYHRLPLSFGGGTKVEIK

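The starting antibody came from a phage panning campaign against this peptide. Designed CDR sequences, proposed from the first random library and measured here. Their group label is 14H_GPLM_Gen (GPLM: also part of the Gaussian process libraries; Gen: genetic algorithm; a sequence that several methods proposed may carry one label only). The scFvs were displayed on barcoded MATa yeast, the peptide on MATalpha yeast. The frequency of each diploid, read from paired DNA barcodes, reflects how well the two displayed proteins bind. Read counts were normalised to the haploid input and turned into Kd by a linear fit to BCL2-family pairs of known affinity, for each replicate. Each pool was mated in six replicate cultures.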

Variants are written as CDR1, CDR2 and CDR3 of the heavy chain (limits as in the source). Parent: GFTLNSYGIS, VIYSDGRRTFYGDSVK, GRAAGTFDS. Numbers give log10(Kd / nM), so 0 is 1 nM and 3 is 1 µM. Smaller is tighter. An entry "nd" has no value in the source: the pair was not observed among the diploids in that replicate. This suggests poor binding but is not conclusive.

{"CDR-H1": "GFTLNSYGIS", "CDR-H2": "VIYSDGRRTFYADSVK", "CDR-H3": "GRTAGTFDK", "replicates, log10 nM": "nd 0.49 0.28 0.75 nd nd", "empty controls": "0/18"}
{"CDR-H1": "GFTLNDYGIS", "CDR-H2": "VIYSDGRRTFYIDSVK", "CDR-H3": "GKAAGTFDS", "replicates, log10 nM": "0.70 0.66 1.92 1.40 1.03 0.85", "empty controls": "1/18 (1.62)"}
{"CDR-H1": "GFTLESYGIS", "CDR-H2": "VIYSDGRRTFYADSVK", "CDR-H3": "GSAAGTFDS", "replicates, log10 nM": "0.34 0.66 0.05 0.43 0.65 0.83", "empty controls": "0/18"}
{"CDR-H1": "GFDLNSYGIS", "CDR-H2": "VIYSDGKRTFYADSVK", "CDR-H3": "GRAAGTFDS", "replicates, log10 nM": "nd nd nd nd nd 2.88", "empty controls": "0/18"}
{"CDR-H1": "GFTLNEYGIS", "CDR-H2": "VIYSDGRRTFYGDSVK", "CDR-H3": "GRTAGTFDQ", "replicates, log10 nM": "0.22 -0.26 -0.24 -0.03 0.08 0.03", "empty controls": "0/18"}
{"CDR-H1": "GFSLNSYGIS", "CDR-H2": "VIYSDGRRTFYSDQVK", "CDR-H3": "GEAAGTFDS", "replicates, log10 nM": "0.61 1.14 0.85 0.37 0.19 0.83", "empty controls": "1/18 (2.43)"}
{"CDR-H1": "GFSLNSYGIS", "CDR-H2": "VIYSDGRRTFYADSVK", "CDR-H3": "GMAAGTFDS", "replicates, log10 nM": "0.25 -0.09 0.24 0.72 0.66 1.05", "empty controls": "0/18"}
{"CDR-H1": "GFSLNEYGIS", "CDR-H2": "VIYSDGRRTFYGDSVK", "CDR-H3": "GRTAGTFDW", "replicates, log10 nM": "1.04 0.65 0.70 0.14 0.21 0.66", "empty controls": "0/18"}
{"CDR-H1": "GFHLNSYGIS", "CDR-H2": "VIYADGRRTFYGDSVK", "CDR-H3": "GRAAGTFDS", "replicates, log10 nM": "0.65 0.52 0.37 0.11 1.03 0.31", "empty controls": "0/18"}
{"CDR-H1": "GFSLNEYGIS", "CDR-H2": "VIYSDGRRTFYGDSVK", "CDR-H3": "GQAAGTFDA", "replicates, log10 nM": "0.39 0.10 0.12 0.16 0.26 0.30", "empty controls": "0/18"}
{"CDR-H1": "GFSLNSYGIS", "CDR-H2": "VIYSDGRRTFYGDSVK", "CDR-H3": "GHVAGTFDS", "replicates, log10 nM": "nd -0.64 -0.69 -0.68 -1.37 -0.69", "empty controls": "0/18"}
{"CDR-H1": "GFTLNSYGIS", "CDR-H2": "VIYSDGRRTFYSDRVK", "CDR-H3": "GEAAGTFDS", "replicates, log10 nM": "1.46 -0.07 3.52 0.80 1.25 0.97", "empty controls": "0/18"}
{"CDR-H1": "GFSLNSYGIS", "CDR-H2": "VIYSDGKRTFYSDSVK", "CDR-H3": "GQAAGTFDS", "replicates, log10 nM": "0.71 -0.10 -0.02 0.29 0.27 0.66", "empty controls": "0/18"}
{"CDR-H1": "GFSLNSYGIS", "CDR-H2": "VIYSDGRRTFYGDNVK", "CDR-H3": "GRTAGTFDT", "replicates, log10 nM": "0.41 0.00 0.44 0.59 0.10 0.43", "empty controls": "0/18"}
{"CDR-H1": "GFSLNSYGIS", "CDR-H2": "VIYSDGRRTFYADDVK", "CDR-H3": "GKAAGTFDS", "replicates, log10 nM": "1.04 0.97 0.94 2.07 1.22 0.65", "empty controls": "0/18"}
{"CDR-H1": "GFTLDSYGIS", "CDR-H2": "VIYSDGRRTFYIDSVK", "CDR-H3": "GNAAGTFDS", "replicates, log10 nM": "0.83 -0.31 -0.25 0.14 -0.11 0.06", "empty controls": "0/18"}
{"CDR-H1": "GFSLNSYGIS", "CDR-H2": "VIYSDGRRTFYTDNVK", "CDR-H3": "GEAAGTFDS", "replicates, log10 nM": "1.09 1.19 1.79 1.13 2.30 1.89", "empty controls": "0/18"}
{"CDR-H1": "GFSLNDYGIS", "CDR-H2": "VIYSDGRRTFYGDSVK", "CDR-H3": "GRVAGTFDS", "replicates, log10 nM": "-0.15 -0.34 -0.74 -0.60 -0.35 -0.15", "empty controls": "0/18"}
{"CDR-H1": "GFSLNNYGIS", "CDR-H2": "VIYSDGRRTFYCDSVK", "CDR-H3": "GRTAGTFDS", "replicates, log10 nM": "1.54 0.81 nd 0.78 nd 0.78", "empty controls": "0/18"}
{"CDR-H1": "GFTLNEYGIS", "CDR-H2": "VIYSDGRRTFYGDSVK", "CDR-H3": "GEAAGTFDK", "replicates, log10 nM": "0.71 0.52 0.78 0.64 0.46 0.69", "empty controls": "1/18 (2.90)"}
{"CDR-H1": "GFTLNSYGIS", "CDR-H2": "VIYSDGRRTFYSDSVK", "CDR-H3": "GQAAGTFDS", "replicates, log10 nM": "-0.22 -0.12 -0.24 -0.48 -0.61 0.25", "empty controls": "1/18 (0.59)"}
{"CDR-H1": "GFTLNSYGIS", "CDR-H2": "VIYSDGRRTFYSDSVK", "CDR-H3": "GRVAGTFDT", "replicates, log10 nM": "0.70 0.57 0.42 0.22 0.66 0.50", "empty controls": "1/18 (2.83)"}
{"CDR-H1": "GFSLNSYGIS", "CDR-H2": "VIYSDGRRTFYADSVK", "CDR-H3": "GMLAGTFDS", "replicates, log10 nM": "-0.21 -0.44 -0.54 -0.15 -0.06 -0.22", "empty controls": "1/18 (1.90)"}

For reference, 4 entries of the list once more:

{"CDR-H1": "GFSLNEYGIS", "CDR-H2": "VIYSDGRRTFYGDSVK", "CDR-H3": "GRTAGTFDW", "replicates, log10 nM": "1.04 0.65 0.70 0.14 0.21 0.66", "empty controls": "0/18"}
{"CDR-H1": "GFTLNEYGIS", "CDR-H2": "VIYSDGRRTFYGDSVK", "CDR-H3": "GEAAGTFDK", "replicates, log10 nM": "0.71 0.52 0.78 0.64 0.46 0.69", "empty controls": "1/18 (2.90)"}
{"CDR-H1": "GFSLNEYGIS", "CDR-H2": "VIYSDGRRTFYGDSVK", "CDR-H3": "GQAAGTFDA", "replicates, log10 nM": "0.39 0.10 0.12 0.16 0.26 0.30", "empty controls": "0/18"}
{"CDR-H1": "GFTLNSYGIS", "CDR-H2": "VIYSDGRRTFYSDRVK", "CDR-H3": "GEAAGTFDS", "replicates, log10 nM": "1.46 -0.07 3.52 0.80 1.25 0.97", "empty controls": "0/18"}

The range of this assay differs from that of the first round, and the authors advise against merging the two. Three control strains display no target. For all heavy chain designs, 1% of the pairings with them gave a signal, with a median of 2.08 and one signal in twenty below 0.84, so weak values seen in few replicates may be background. For each scFv, signals with the empty controls are counted beside the result, with their mean in brackets. In the paper, a design with two or fewer of six values counts as a poor binder. Of ten entries with the parent sequence, four were seen in most replicates (averages 0.34 to 2.37), three in one and three in none, so single entries are noisy.

Reference: Li et al. 2023, doi:10.1038/s41467-023-39022-2. File: FLAb, binding data.